Assay results: US20240208984A1, “BIVALENT LIGANDS TO UNDERSTAND DIMERIZATION OF THE MU OPIOID RECEPTOR AND THE CHEMOKINE RECEPTOR CCR5 IN NEUROLOGICAL DISORDERS” (priority 2021, published 2024)
“And” between values parts separate entries of the source, which are not always exact repeats. Equal entries are not always repeated.

By UniProt entry, the sequences of proteins in these tests, tags left out.
UniProt P42866, whole entry, looked up: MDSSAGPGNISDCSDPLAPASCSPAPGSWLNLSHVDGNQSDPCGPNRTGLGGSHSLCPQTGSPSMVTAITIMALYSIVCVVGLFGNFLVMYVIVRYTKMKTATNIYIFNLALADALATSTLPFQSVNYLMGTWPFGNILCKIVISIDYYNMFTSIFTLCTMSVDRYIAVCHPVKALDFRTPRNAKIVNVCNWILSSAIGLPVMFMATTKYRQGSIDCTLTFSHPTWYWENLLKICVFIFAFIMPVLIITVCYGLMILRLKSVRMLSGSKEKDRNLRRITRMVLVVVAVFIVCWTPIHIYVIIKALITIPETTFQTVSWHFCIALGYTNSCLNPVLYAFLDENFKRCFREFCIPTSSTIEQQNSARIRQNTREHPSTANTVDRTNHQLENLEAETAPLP

Molecular target: mouse MOR (Mus musculus (Mouse), UniProt P42866)
Assay: [35S]GTPγS functional assay in mMOR-CHO
Type: biochemical
Conditions: [35S]GTPγS binding, mean ± SEM
Method: MOR [^35S]GTPγS functional studies. The [^35S]GTPγS functional assay was carried out in mMOR-CHO cells to define the relative efficacy of these bivalent ligands to activate the MOR as previously illustrated.
[^35S]-GTPγS functional assays was conducted in the mouse MOR cell membrane used for the receptor binding assays. Membrane protein (10 μg) was incubated with varying concentrations of test compounds, GDP (15 μM), and 80 μM [35S]-GTPγS in assay buffer for 1 h at 30° C. Nonspecific binding was determined with 10 μM unlabeled GTPγS. […] After incubation, the bound radioactive ligand was separated from the free radioligand by filtration through a GF/B glass fiber filter paper and rinsed three times with ice-cold wash buffer (50 mM Tris-HCl, pH 7.2) using the Brandel harvester. The results were determined by utilizing a scintillation counter. All assays were determined in triplicate and repeated at least three times. […] Calcium Mobilization Assay in mMOR-CHO Cells

Compound: CC(C)c1nnc(CCNC(=O)COCC(=O)NCCCCCCCNC(=O)COCC(=O)NC2CC[C@@]3(O)[C@H]4Cc5ccc(O)c6c5[C@@]3(CCN4CC3CC3)[C@H]2O6)n1C1CC2CCC(C1)N2CC[C@H](NC(=O)C1CCC(F)(F)CC1)c1ccccc1 (stereo partly shown) [VZMC013]
- % Emax of DAMGO: 9.22% and 9.22 ± 0.94^a %
